According to patent US20170028013A1, “COMBINATION FORMULATION OF LAQUINIMOD AND GLATIRAMER ACETATE WITH AMINO ACIDS” (Teva Pharmaceutical Industries, Ltd., priority 2015, published 2017):

Experiments:
[1] = Visual clarity / turbidity of GA-laquinimod formulations; format: physicochemical; conditions: GA 5-6 mg/mL; phosphate, acetate, hydrocarbonate buffers pH 5.5-8; 5° C. and 25° C./60% RH
Protocol: As used herein, a “clear” solution, formulation or form is a solution, formulation or form which appears clear or transparent by visible inspection.
In addition, for the characterization of the best scaled-up formulation comprising GA LAQ (1.1 mg/mL), L-lysine (1.4 mg/mL) and mannitol (43 mg/mL) as a tonicity agent, HPLC-SEC (size-exclusion chromatography) was used to evaluate the GA assay and molecular-weight distribution, while HPLC was used for LAQ assay. Clarity was evaluated using a 2100 AN turbidimeter. Functional tests for the drug product filled in pre-filled syringes were performed to evaluate Breakout and Gliding forces.

[2] = pH optimum for stability and solubility; format: physicochemical
Source text: Developing formulations containing laquinimod and GA is particularly difficult because laquinimod and GA have different pH optimums in terms of stability and solubility and because of undesired effects, mainly gelation or the formation of turbid formulations in the presence of various buffers, solvents and surface active agents.

In the case of “L-glutamic acid polymer with L-alanine, L-lysine and L-tyrosine, acetate (salt) [Glatiramer acetate]”, the “Turbidity of GA solutions in buffers” value [1] is reported as “cause turbidity” and the “pH required to limit degradation” value [2] is reported as ≤ 7.0.
